Assay results as given in PubChem BioAssay (NCI).
The list shows a part of the results, in another mix than the full data.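 Assay: single dose, 48 h. Readout: percent growth (0 = no net growth; negative = cell death). Active: <10.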 Active and inactive are the calls of the source.

Columns and labels:
Experiment in all cases: NCI-60 one-dose screen, 48 h (100 = growth as untreated, 0 = no growth, -100 = all killed)
Conditions in all cases: 10 µM
NCI-H23 lung = test system: NCI-H23 lung
NCI-H226 lung = test system: NCI-H226 lung
NCI-H322M lung = test system: NCI-H322M lung
HOP-62 NSCLC = test system: HOP-62 NSCLC
NCI-H460 lung = test system: NCI-H460 lung
HOP-92 NSCLC = test system: HOP-92 NSCLC
NCI-H522 lung = test system: NCI-H522 lung
A549/ATCC NSCLC = test system: A549/ATCC NSCLC
786-0 renal = test system: 786-0 renal
COLO 205 colon = test system: COLO 205 colon
DU-145 prostate = test system: DU-145 prostate
K-562 leukemia = test system: K-562 leukemia
MALME-3M melanoma = test system: MALME-3M melanoma
MDA-MB-231 breast = test system: MDA-MB-231 breast
RXF 393 renal = test system: RXF 393 renal
SF-268 CNS = test system: SF-268 CNS
SF-295 CNS = test system: SF-295 CNS
SF-539 CNS = test system: SF-539 CNS
UACC-257 melanoma = test system: UACC-257 melanoma
M14 melanoma = test system: M14 melanoma
HCT-15 colon = test system: HCT-15 colon
HT29 colon = test system: HT29 colon
SNB-75 CNS = test system: SNB-75 CNS
SNB-19 CNS = test system: SNB-19 CNS
U251 CNS = test system: U251 CNS
PC-3 prostate = test system: PC-3 prostate
SK-MEL-5 melanoma = test system: SK-MEL-5 melanoma
UACC-62 melanoma = test system: UACC-62 melanoma
LOX IMVI melanoma = test system: LOX IMVI melanoma
SK-MEL-28 melanoma = test system: SK-MEL-28 melanoma
SK-MEL-2 melanoma = test system: SK-MEL-2 melanoma
EKVX NSCLC = test system: EKVX NSCLC
SN12C renal = test system: SN12C renal
UO-31 renal = test system: UO-31 renal
TK-10 renal = test system: TK-10 renal
ACHN renal = test system: ACHN renal
CAKI-1 renal = test system: CAKI-1 renal
A498 renal = test system: A498 renal
HL-60(TB) leukemia = test system: HL-60(TB) leukemia
CCRF-CEM leukemia = test system: CCRF-CEM leukemia
MOLT-4 leukemia = test system: MOLT-4 leukemia
RPMI-8226 leukemia = test system: RPMI-8226 leukemia
OVCAR-8 ovarian = test system: OVCAR-8 ovarian
OVCAR-5 ovarian = test system: OVCAR-5 ovarian
OVCAR-4 ovarian = test system: OVCAR-4 ovarian
SK-OV-3 ovarian = test system: SK-OV-3 ovarian
IGROV1 ovarian = test system: IGROV1 ovarian
OVCAR-3 ovarian = test system: OVCAR-3 ovarian
HS 578T breast = test system: HS 578T breast
NCI/ADR-RES ovarian = test system: NCI/ADR-RES ovarian
T-47D breast = test system: T-47D breast
BT-549 breast = test system: BT-549 breast
MDA-MB-435 melanoma = test system: MDA-MB-435 melanoma
SW-620 colon = test system: SW-620 colon
MCF7 breast = test system: MCF7 breast
HCT-116 colon = test system: HCT-116 colon
HCC-2998 colon = test system: HCC-2998 colon
KM12 colon = test system: KM12 colon

Measured: growth

CN(CCCl)CCCl
active: NCI-H460 lung 3.06% | HOP-92 NSCLC -14% | NCI-H522 lung -85.2% | 786-0 renal 9.71% | RXF 393 renal 6.43% | SF-539 CNS 3.63% | ACHN renal -7.03% | CAKI-1 renal -21.8% | HL-60(TB) leukemia -17.5% | MOLT-4 leukemia -3.56% | OVCAR-3 ovarian 2.04% | T-47D breast 9.36%
inactive: NCI-H23 lung 18.9% | NCI-H226 lung 66.5% | NCI-H322M lung 90.7% | HOP-62 NSCLC 50.2% | A549/ATCC NSCLC 38% | COLO 205 colon 16.2% | DU-145 prostate 17.6% | K-562 leukemia 58.5% | MALME-3M melanoma 10.7% | MDA-MB-231 breast 85.7% | SF-268 CNS 31.7% | SF-295 CNS 49% | UACC-257 melanoma 57% | M14 melanoma 32% | HCT-15 colon 44.7% | HT29 colon 28.2% | SNB-75 CNS 67.5% | SNB-19 CNS 73.4% | U251 CNS 38.9% | PC-3 prostate 64% | SK-MEL-5 melanoma 68.2% | UACC-62 melanoma 43.6% | LOX IMVI melanoma 22.7% | SK-MEL-28 melanoma 77.8% | SK-MEL-2 melanoma 105% | EKVX NSCLC 105% | SN12C renal 20.9% | UO-31 renal 24.9% | TK-10 renal 35.3% | A498 renal 75.5% | CCRF-CEM leukemia 11% | RPMI-8226 leukemia 34% | OVCAR-8 ovarian 69.7% | OVCAR-5 ovarian 84.6% | OVCAR-4 ovarian 74% | SK-OV-3 ovarian 69.8% | IGROV1 ovarian 51.4% | HS 578T breast 102% | NCI/ADR-RES ovarian 59.1% | BT-549 breast 56% | MDA-MB-435 melanoma 75.3% | SW-620 colon 43.3% | MCF7 breast 33.9% | HCT-116 colon 33.8% | HCC-2998 colon 51.1% | KM12 colon 64.9%
